Screening data deposited in PubChem BioAssay by National Center for Advancing Translational Sciences (NCATS).
EPAC2 ag – qHTS for Agonist of cAMP-regulated guanine nucleotide exchange factor 4 (EPAC2): primary screen. Rap guanine nucleotide exchange factor 4 (Homo sapiens), Q8WZA2. EPAC2 activation, biochemical qHTS; response scale: 100% = 6.5 mM cAMP response. Potency, µM (titrated, usually from 154 µM), without a hit: at the highest dose activation, actives largely listed as activators. hit rate 0.079% among 360,000; note: nearly all actives have a fitted effect of over 50% in size
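Nucleotide exchange monitored as fluorescence drop when BODIPY-GDP leaves Rap1B. Reaction: 100 nM EPAC2, 250 nM RAP1B-BODIPY-GDP, 50 uM GDP, room temperature, kinetic read over 30 min. Activity expressed relative to 6.5 mM cAMP.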
EPAC2 antag – qHTS for Antagonist of cAMP-regulated guanine nucleotide exchange factor 2 (EPAC2): primary screen; Rap guanine nucleotide exchange factor 4 (Homo sapiens), Q8WZA2; EPAC2 GEF exchange of Rap1B-BODIPY-GDP, fluorescence; Potency, µM (top dose mostly 114 µM), without a hit: at the highest dose activity, negative = inhibition, hits mostly inhibitors; hit rate 0.18% among 360,000; note: % is set by controls: 0 for no effect and ±100 for the full control effect; nearly all actives have a fitted effect of over 45% in size
EPAC1 antag – qHTS for Antagonist of cAMP-regulated guanine nucleotide exchange factor 3 (EPAC1): primary screen; EPAC1 GEF assay, Rap1b-BODIPY-GDP exchange fluorescence; Potency, µM (highest dose often 115 µM), for the others: at the highest dose activity change, negative = inhibition, usual class: inhibitors; hit rate 0.14% among 360,000; AID 720709, 2013;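 note: plate controls were vehicle for no effect and positive control for full effect; nearly all actives have a fitted effect of over 50% in size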
Rango-impB inh – qHTS Assay for Inhibitors of Rango (Ran-regulated importin-beta cargo) - Importin beta complex formation; Importin subunit beta-1 (Homo sapiens), Q14974; Rango CFP/YFP FRET sensor + importin beta, 45 min; Potency, µM (titrated, usually from 92.2 µM), for inactives: at the highest dose inhibition of complex formation; hit rate 0.031% among 340,000; calls by dose curve;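 note: 0% = DMSO wells and 100% = buffer wells lacking importin beta; nearly all actives have a fitted effect of over 15% in size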
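Inhibition scored from the CFP 486 nm/YFP 530 nm FRET ratio 45 min after adding 0.125 microM importin beta to 50 nM Rango biosensor preincubated 5 min with compound (room temperature, PBS with DTT, Tween-20, BSA). No-importin wells as positive control.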
Rango dissoc inh – qHTS Assay for Inhibitors of RanGTP induced Rango (Ran-regulated importin-beta cargo) - Importin beta complex dissociation. Biochemical FRET Rango-importin beta, RanGTP-induced dissociation. Potency, µM (top dose mostly 46.1 µM), for the others: at the top dose activity change, negative = inhibition. hit rate 0.071% among 340,000. AID 540253, 2011; calls by dose curve; note: % of control where 0% means no effect; nearly all actives have a fitted effect of over 45% in size
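Compounds sat 5 min at room temperature with 0.1 uM Rango biosensor plus 0.25 uM importin beta, then FRET pre-read. RanGTP-RCC1 (0.6 uM Ran, 2mM GTP, 0.2 uM RCC1) added for 45 min, and the CFP/YFP post-read measured blocked complex dissociation.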
EPAC1 agonist – qHTS for Agonist of cAMP-regulated guanine nucleotide exchange factor 3 (EPAC1): primary screen | Rap guanine nucleotide exchange factor 3 (Homo sapiens), O95398 | EPAC1 agonist qHTS, biochemical assay; response scale: 100% = response to 6.5 mM cAMP | Potency, µM (series often up to 154 µM), for the others: at the top dose activation, usual class: activators | hit rate 0.073% among 360,000 | AID 720707, 2013; note: nearly all actives have a fitted effect of over 60% in size
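Read-out is the fluorescence drop as BODIPY-GDP leaves Rap1B (480 nm excitation, 540 nm emission), recorded every 5 minutes over 30 minutes. Reactions held 100 nM EPAC1, 250 nM Rap1B–BODIPY-GDP and 50 uM GDP, with 6.5 mM cAMP setting full activation.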
Active calls of the source: *; ? = inconclusive; . = no result; [ ] = another dose, or the depositor's remark. The list is not random: actives were taken first. Their share in the collection is about 0.48%. Unless noted, calls come from the whole dose curve; as a rule, active = well fitted curve in the direction sought with a large enough effect; inconclusive = small, poorly fitted or top-dose-only effect, or another doubt; inactive = no such curve, though single readings can be large; an effect the other way counts as inactive or inconclusive. Potency is the fitted concentration of half-maximal effect.

Amino acid sequences for entries named in this document (tags omitted).
Importin subunit beta-1 (Homo sapiens), Q14974, UniProt Q14974, whole entry, looked up: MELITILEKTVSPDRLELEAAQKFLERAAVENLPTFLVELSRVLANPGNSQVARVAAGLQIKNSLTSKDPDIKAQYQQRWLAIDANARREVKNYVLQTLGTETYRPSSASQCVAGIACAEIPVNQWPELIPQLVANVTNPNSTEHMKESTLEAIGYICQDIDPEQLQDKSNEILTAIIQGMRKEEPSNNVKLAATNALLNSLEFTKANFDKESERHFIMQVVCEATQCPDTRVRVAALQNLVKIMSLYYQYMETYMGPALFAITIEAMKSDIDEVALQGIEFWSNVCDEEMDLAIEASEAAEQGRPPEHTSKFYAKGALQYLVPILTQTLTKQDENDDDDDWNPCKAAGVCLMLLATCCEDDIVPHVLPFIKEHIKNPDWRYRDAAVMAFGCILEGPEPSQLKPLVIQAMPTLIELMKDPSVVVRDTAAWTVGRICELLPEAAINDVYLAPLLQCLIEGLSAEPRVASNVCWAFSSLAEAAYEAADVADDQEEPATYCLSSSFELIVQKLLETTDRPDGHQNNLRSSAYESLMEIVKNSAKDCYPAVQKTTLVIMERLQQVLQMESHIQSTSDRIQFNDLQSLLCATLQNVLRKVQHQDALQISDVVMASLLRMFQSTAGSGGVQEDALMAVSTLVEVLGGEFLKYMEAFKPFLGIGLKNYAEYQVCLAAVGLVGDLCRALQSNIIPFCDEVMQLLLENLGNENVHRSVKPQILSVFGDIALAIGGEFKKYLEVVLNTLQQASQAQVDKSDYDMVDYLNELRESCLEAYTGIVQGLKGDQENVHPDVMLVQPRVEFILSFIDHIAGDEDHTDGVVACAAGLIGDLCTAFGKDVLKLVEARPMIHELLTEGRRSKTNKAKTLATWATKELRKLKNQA

SMILES | EPAC2 ag | EPAC2 antag | EPAC1 antag | Rango-impB inh | Rango dissoc inh | EPAC1 agonist
N#Cc1cc(C(=O)c2cc(F)ccc2O)cn(-c2nccs2)c1=O | 112µM* | 76% | 36% | ? | ? | ?
N#Cc1cc(C(=O)c2ccccc2O)cn(-c2nccs2)c1=O | 100µM* | 77% | 62% | ? | ? | 89µM*
COCCOC(=O)/C(C#N)=C/c1cn(Cc2ccccc2)nc1-c1cccnc1 | 4% | -2% | -4% | 2% | -1% | -3%
Cc1ccc(Cn2c(N3CCN(CCO)CC3)nc3c2c(=O)n(C)c(=O)n3C)cc1 | 13% | -4% | 1% | 1% | -1% | 16%
CC(=O)Nc1ccc(-c2ccnc3c2CC(C)(C(=O)NCc2ccc(N4CCN(C)CC4)cc2)O3)cc1 (stereo unspecified) | 8% | 18% | -11% | . | . | 2%
CC(C)CCNC(=O)COC(=O)c1cc(Br)c(Br)s1 | -13% | 4% | -12% | 0% | 1% | 1%
COc1ccc2[nH]c(=O)c(CN(Cc3nnnn3Cc3ccco3)C3CCCCC3)cc2c1 | 14% | -6% | ? | ? | -29% | 1%
COc1ccc2cc(CN(CCc3ccccc3)Cc3nnnn3Cc3ccco3)c(=O)[nH]c2c1 | 12% | -15%[57.1 µM] | -26% | ? | 15µM* | 5%
CCCC[C@@H]1CC2=C(C(=O)OC(C)(C)O2)[C@@H](c2ccc(Cl)cc2)O1 | 2% | -9% | 3% | . | . | -4%
CCSC1=N/C(=C\c2ccc3c(c2)OCO3)C(=O)S1 | -77% | 10% | 8% | ? | 16µM* | 6%
CCCSC1=N/C(=C\c2ccc3c(c2)OCO3)C(=O)S1 | 11% | -2% | -2% | ? | ? | 8%
O=C(NCC1CC1)C1Cc2c(-c3ccc4c(c3)OCO4)ccnc2O1 (stereo unspecified) | 9% | 0% | -5% | . | . | -11%
COc1ccc2c3c(cccc13)C(=O)CC2 | 112µM* | 125% | 222% | ? | ? | 100µM*
CCOc1ccc(-n2c(C)cc(C(=O)CCl)c2C)cc1 | 9% | 8.9µM* | -22% | 1% | 0% | 1%
COC(=O)c1ccc(-n2c(C)cc(C(=O)CCl)c2C)cc1 | 12% | 35µM* | -27% | 10% | ? | 3%
Cc1[nH]c(=O)nc(SCc2cccc(Cl)c2)c1C#N | -4% | -1% | ? | ? | -27% | -1%
N#Cc1c(-c2ccccc2)nc(SCc2cccc(Cl)c2)[nH]c1=O | -11% | 89µM* | ? | -3% | 12% | -5%
Cc1ccc(Cl)cc1-c1cc(C(=O)N2CCc3ccccc3C2)[nH]n1 | 19% | 6% | -9% | . | . | 15%
O=C1c2ccccc2C(=O)c2c1cccc2N1CCCC1 | 19% | -16% | -20% | 1% | 2% | 8%
O=C1C=C(N2CCCCC2)c2ccccc2C1=O | 17% | 35µM* | 45µM* | 1% | -14% | 17%
CC(=O)Nc1ccc(Nc2c3c4c(cccc4n(C)c2=O)C(=O)c2ccccc2-3)cc1 | 112µM* | 11% | 35% | 10% | 1% | ?
CCCCNc1c2c3c(cccc3n(C)c1=O)C(=O)c1ccccc1-2 | 62% | 201% | 206% | ? | ? | 60%
Nc1ccc(O)c(-c2nc3ccccc3s2)c1 | -5% | -4% | 7% | ? | 10µM* | -2%
Oc1ccc(-c2nc3ccccc3s2)c(O)c1 | 18% | -3% | 5% | 7% | 4% | 8%
O=C(/C=C/c1ccc(-c2ccccc2[N+](=O)[O-])o1)c1ccco1 | 12% | 0% | 50µM* | ? | ? | 4%

Results in EPAC2 antag, EPAC2 ag and Rango dissoc inh, for 6 of the compounds above:
canonical_smiles | EPAC2 antag | EPAC2 ag | Rango dissoc inh
COc1ccc2cc(CN(CCc3ccccc3)Cc3nnnn3Cc3ccco3)c(=O)[nH]c2c1 | -15%[57.1 µM] | 12% | 15µM*
CCCC[C@@H]1CC2=C(C(=O)OC(C)(C)O2)[C@@H](c2ccc(Cl)cc2)O1 | -9% | 2% | .
CCSC1=N/C(=C\c2ccc3c(c2)OCO3)C(=O)S1 | 10% | -77% | 16µM*
CCCSC1=N/C(=C\c2ccc3c(c2)OCO3)C(=O)S1 | -2% | 11% | ?
O=C(NCC1CC1)C1Cc2c(-c3ccc4c(c3)OCO4)ccnc2O1 (stereo unspecified) | 0% | 9% | .
COc1ccc2c3c(cccc13)C(=O)CC2 | 125% | 112µM* | ?

Other compounds:
SMILES | EPAC2 ag | EPAC2 antag | EPAC1 antag | Rango-impB inh | Rango dissoc inh | EPAC1 agonist
CCOC(=O)Cc1csc(NS(=O)(=O)c2ccccc2)n1 | -6% | -2% | 5% | 4% | 8% | -1%
CCOC(=O)c1ccccc1-c1csc(NS(=O)(=O)c2ccc(Cl)cc2)n1 | 8% | -6% | 79µM* | 5% | 9% | -1%
COCCN(C(=O)c1c(C)noc1C)c1c(N)n(CC(C)C)c(=O)[nH]c1=O | -2% | 1% | 4% | -3% | -6% | 11%
NC(=O)CC(NC(=O)Cc1ccc(Br)cc1)c1ccc(NC2CCN(Cc3ccccc3)CC2)c([N+](=O)[O-])c1 (stereo unspecified) | -35% | 23% | -2% | 52µM* | 0% | -53%
NC(=O)CC(NC(=O)Cc1cccc2ccccc12)c1ccc(NC2CCN(Cc3ccccc3)CC2)c([N+](=O)[O-])c1 (stereo unspecified) | 3% | 0% | 4% | 2% | -3% | 16%
CN(CC(=O)Nc1ccccc1C(F)(F)F)C(=O)c1cc(-c2cccs2)nn1-c1ccccc1 | 3% | -2% | -9% | -1% | -9% | 112µM*
COC(=O)[C@@H]1CCCN1C(=O)[C@@H](NC(=O)OC(C)(C)C)C(C)C | 1% | 3% | -10% | -1% | -8% | -9%
O=c1c2ccccc2sn1-c1ccc(Cl)cc1Cl | 2% | 11µM* | 0% | . | . | -1%
O=c1c2ccccc2ncn1-c1ccc(Cl)cc1Cl | 15% | ? | -1% | 0% | 9% | 14%
CC(=O)Nc1ccc(-c2ccnc3c2CC(C)(C(=O)Nc2cccc(Oc4ccccc4)c2)O3)cc1 (stereo unspecified) | 7% | 2% | 7% | . | . | -13%
COc1ccc2c(c1)NC(c1ccc(N(C)C)cc1)c1cccn1-2 (stereo unspecified) | -3% | 2% | 2% | ? | ? | -7%
CN(N=Nc1ccc([N+](=O)[O-])cc1)c1ccccc1 | 100µM* | 347% | 79µM* | ? | -24% | -793%
COc1ccc(NC(=O)C(c2ccccc2F)n2c(=O)c(-c3cc4ccccc4[nH]3)nc3ccccc32)cc1 (stereo unspecified) | 11% | -15% | -3% | . | . | 6%
CC1(C)C(=O)Nc2ccccc2N1C(=O)COC(=O)c1ccc(NC(N)=O)cc1 | 4% | 0% | -2% | -3% | 22% | -2%

Records above printed as active in Rango-impB inh.
SMILES | EPAC2 ag | EPAC2 antag | EPAC1 antag | Rango-impB inh | Rango dissoc inh | EPAC1 agonist
NC(=O)CC(NC(=O)Cc1ccc(Br)cc1)c1ccc(NC2CCN(Cc3ccccc3)CC2)c([N+](=O)[O-])c1 (stereo unspecified) | -35% | 23% | -2% | 52µM* | 0% | -53%
